From ChEMBL document CHEMBL4371087, “Development of novel liver X receptor modulators based on a 1,2,4-triazole scaffold” (Bioorg Med Chem Lett, 2019)

By UniProt entry, the sequences of proteins in these tests, tags left out.
UniProt P55055, whole entry: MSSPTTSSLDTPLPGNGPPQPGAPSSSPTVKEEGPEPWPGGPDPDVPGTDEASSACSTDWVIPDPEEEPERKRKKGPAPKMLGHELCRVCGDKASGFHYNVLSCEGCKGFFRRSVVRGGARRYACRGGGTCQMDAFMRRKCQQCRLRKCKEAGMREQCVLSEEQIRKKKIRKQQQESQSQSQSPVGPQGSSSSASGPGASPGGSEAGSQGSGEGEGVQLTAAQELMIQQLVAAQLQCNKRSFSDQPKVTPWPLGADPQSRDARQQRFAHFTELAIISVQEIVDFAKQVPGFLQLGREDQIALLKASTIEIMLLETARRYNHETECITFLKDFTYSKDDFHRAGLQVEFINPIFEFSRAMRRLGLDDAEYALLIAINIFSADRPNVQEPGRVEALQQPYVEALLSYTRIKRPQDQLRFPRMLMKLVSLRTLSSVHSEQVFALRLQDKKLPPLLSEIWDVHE
UniProt Q13133, whole entry: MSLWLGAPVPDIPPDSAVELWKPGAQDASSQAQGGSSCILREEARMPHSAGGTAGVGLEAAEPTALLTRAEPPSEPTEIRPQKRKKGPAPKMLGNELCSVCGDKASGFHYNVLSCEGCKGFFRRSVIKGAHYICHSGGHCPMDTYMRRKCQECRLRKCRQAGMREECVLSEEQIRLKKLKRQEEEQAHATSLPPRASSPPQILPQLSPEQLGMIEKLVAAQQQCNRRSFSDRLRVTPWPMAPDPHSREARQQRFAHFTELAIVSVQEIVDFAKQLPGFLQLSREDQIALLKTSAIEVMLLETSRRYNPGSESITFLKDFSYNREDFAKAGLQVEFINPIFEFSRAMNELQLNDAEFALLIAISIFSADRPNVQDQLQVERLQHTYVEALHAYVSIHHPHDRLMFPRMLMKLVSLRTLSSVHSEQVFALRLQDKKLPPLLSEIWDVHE

Assays:
Assay type in all cases: cell-based
Homo sapiens = species: Homo sapiens; assay: Selectivity ratio of EC50 for full length human LXRalpha expressed in HEK293 cells to EC50 for full length human LXRbeta expressed in HEK293 cells
[1] = biological target: Oxysterols receptor LXR-beta (Homo sapiens, UniProt P55055); assay: Agonist activity at full length human LXRbeta expressed in HEK293 cells harboring LXRE-Luc promoter at 10 uM by luciferase reporter gene assay relative to T0901317
[2] = biological target: Oxysterols receptor LXR-alpha (Homo sapiens, UniProt Q13133); assay: Agonist activity at full length human LXRalpha expressed in HEK293 cells harboring LXRE-Luc promoter at 10 uM by luciferase reporter gene assay relative to T0901317

Emax [1] | Emax [2] | Compound | Ratio EC50 (Homo sapiens)
78% | 58% | CC(=O)n1nc(-c2ccc(Br)cc2)nc1-c1ccccc1 | 0.49
63% | 56% | CC(=O)n1nc(-c2ccccc2)nc1-c1ccccc1 | 1.71
63% | 56% | c1ccc(-c2n[nH]c(-c3ccccc3)n2)cc1 | 0.14
74% | 60% | Clc1ccccc1-c1n[nH]c(-c2ccccc2)n1 | 0.82
